# Literature values as cited in patent US4555403A, “Pharmacologically active peptides and medicaments containing the same” (priority 1979, dated 1985).
# System: Pronase E. Merck
# Details: short incubation period; cited from earlier work
row,Substance,pharmacological (opiate-like) activity after treatment in vitro with proteases
1,methionine-encephalin,lose their pharmacological activity
2,leucine-encephalin,lose their pharmacological activity
